{"sequences": {"note": "Amino acid sequences for entries named in this document (tags omitted).", "UniProt P14902, whole entry, looked up": "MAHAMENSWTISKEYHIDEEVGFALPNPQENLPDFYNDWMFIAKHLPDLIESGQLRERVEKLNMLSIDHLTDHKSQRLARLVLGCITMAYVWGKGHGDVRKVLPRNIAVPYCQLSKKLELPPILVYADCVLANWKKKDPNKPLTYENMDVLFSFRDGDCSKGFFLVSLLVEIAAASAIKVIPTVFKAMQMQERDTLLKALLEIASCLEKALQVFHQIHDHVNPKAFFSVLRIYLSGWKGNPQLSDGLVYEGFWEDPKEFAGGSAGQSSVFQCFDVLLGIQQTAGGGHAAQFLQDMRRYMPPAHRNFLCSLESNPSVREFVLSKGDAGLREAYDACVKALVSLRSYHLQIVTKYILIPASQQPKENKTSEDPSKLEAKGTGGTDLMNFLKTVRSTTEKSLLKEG"}, "source": "BindingDB's records for 35696861", "target": "Indoleamine 2,3-dioxygenase 1 (Homo sapiens, UniProt P14902)", "note": "pIC50: −log10 of the molar value.", "data": [{"smiles": "COP(C)(=O)NCCCNc1nonc1/C(=N/O)Nc1ccc(F)c(Br)c1", "note": "(stereo unspecified)", "values": [{"measurement": "pIC50", "result": 4.02}]}]}
